Laboratory results taken from ChEMBL document CHEMBL1145799, “Spirocyclopropyl beta-lactams as mechanism-based inhibitors of serine beta-lactamases. Synthesis by rhodium-catalyzed cyclopropanation of 6-diazopenicillanate sulfone” (J Med Chem, 2003).

Chains of the proteins cited; added tags and fusions are not shown.
UniProt P05364, whole entry, looked up: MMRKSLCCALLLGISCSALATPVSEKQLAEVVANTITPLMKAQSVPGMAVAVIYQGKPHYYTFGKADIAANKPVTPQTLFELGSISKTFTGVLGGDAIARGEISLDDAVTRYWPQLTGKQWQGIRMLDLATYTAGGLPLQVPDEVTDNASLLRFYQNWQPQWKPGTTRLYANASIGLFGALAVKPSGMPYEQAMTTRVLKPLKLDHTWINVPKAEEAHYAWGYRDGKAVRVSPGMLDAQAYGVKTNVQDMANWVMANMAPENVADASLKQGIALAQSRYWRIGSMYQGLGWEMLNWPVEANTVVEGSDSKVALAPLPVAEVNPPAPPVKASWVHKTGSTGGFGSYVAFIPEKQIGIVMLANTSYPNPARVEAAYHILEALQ

Tests used:
[1] = biological target: Beta-lactamase (Enterobacter cloacae) (UniProt P05364); details: Pseudomonas aeruginosa
[2] = biological target: Beta-lactamase (Enterobacter cloacae) (UniProt P05364); details: Serratia marcescens
[3] = biological target: Beta-lactamase (Enterobacter cloacae) (UniProt P05364); details: Escherichia coli

Row | SMILES | MIC [1] [µg/mL] | MIC [2] [µg/mL] | MIC [3] [µg/mL]
1 | CC1(C)[C@H](C(=O)O)N2C(=O)[C@]3(C[C@@H]3OC3CCCCC3)[C@H]2S1(=O)=O.CCN1CCN(C(=O)N[C@@H](C(=O)N[C@@H]2C(=O)N3[C@@H]2SC(C)(C)[C@@H]3C(=O)O)c2ccccc2)C(=O)C1=O | 32 | 32 | –
2 | CCN1CCN(C(=O)N[C@@H](C(=O)N[C@@H]2C(=O)N3[C@@H]2SC(C)(C)[C@@H]3C(=O)O)c2ccccc2)C(=O)C1=O | > 64 | 32 (≈ 61.8 µM) | > 64

≈ marks a conversion by molar mass, not a printed value.
